Laboratory results as given in ChEMBL document CHEMBL1811897, “Nicotinic acetylcholine receptor efficacy and pharmacological properties of 3-(substituted phenyl)-2β-substituted tropanes” (J Med Chem, 2010).

Experiments:
Homo sapiens [1] = species: Homo sapiens; experiment: Selectivity ratio for human DAT over human SERT
Homo sapiens [2] = species: Homo sapiens; experiment: Selectivity ratio for human DAT over human NET
Homo sapiens [3] = species: Homo sapiens; experiment: Selectivity for human DAT over human ganglionic alpha3beta4alpha5beta2 nAChR
Homo sapiens [4] = species: Homo sapiens; experiment: Selectivity for human NET over human DAT
Homo sapiens [5] = species: Homo sapiens; experiment: Selectivity for human NET over human ganglionic alpha3beta4alpha5beta2 nAChR

SMILES | Ratio IC50 (Homo sapiens [1]) | Ratio IC50 (Homo sapiens [2]) | Ratio IC50 (Homo sapiens [3]) | Ratio IC50 (Homo sapiens [4]) | Ratio IC50 (Homo sapiens [5])
Cc1ccc([C@H]2C[C@@H]3CC[C@H]([C@H]2C(=O)OC(C)C)N3C)cc1 | > 60 | > 60 | > 2000 | – | –
COC(=O)[C@@H]1[C@H]2CC[C@@H](C[C@H]1c1ccc(C)c(F)c1)N2 | – | – | – | 14 | 3500
